Laboratory results: publication PMC8749467, “A new ALK inhibitor overcomes resistance to first‐ and second‐generation inhibitors in NSCLC” (EMBO Molecular Medicine, 2021)

Test system: H3122 xenograft tumors
Details: 50 mg/kg once daily, 11 days

In the case of `C[C@@H](Oc1cc(-c2cnn(C3CCNCC3)c2)cnc1N)c1c(Cl)ccc(F)c1Cl` [Crizotinib, crizotinib], the tumor growth is reported as “tumor growth inhibition”.
